Data taken from PubChem BioAssay AID1476 (National Center for Advancing Translational Sciences (NCATS), 2009).
About 4,500 (2.2%) of roughly 200,000 compounds were called active. Only results without a clear call are listed here; the source files them as inconclusive. Calls follow the shape of the dose curve; as a rule, active = well fitted inhibition curve with a large enough effect; inconclusive = small, poorly fitted or top-dose-only effect, or effect the other way; inactive = flat fitted curve, though single readings scatter.

Sequences of proteins named here, by UniProt entry; tags and fusion partners are left off. A change or cut given only in a name is not applied to a line headed by its entry.
UniProt P25779: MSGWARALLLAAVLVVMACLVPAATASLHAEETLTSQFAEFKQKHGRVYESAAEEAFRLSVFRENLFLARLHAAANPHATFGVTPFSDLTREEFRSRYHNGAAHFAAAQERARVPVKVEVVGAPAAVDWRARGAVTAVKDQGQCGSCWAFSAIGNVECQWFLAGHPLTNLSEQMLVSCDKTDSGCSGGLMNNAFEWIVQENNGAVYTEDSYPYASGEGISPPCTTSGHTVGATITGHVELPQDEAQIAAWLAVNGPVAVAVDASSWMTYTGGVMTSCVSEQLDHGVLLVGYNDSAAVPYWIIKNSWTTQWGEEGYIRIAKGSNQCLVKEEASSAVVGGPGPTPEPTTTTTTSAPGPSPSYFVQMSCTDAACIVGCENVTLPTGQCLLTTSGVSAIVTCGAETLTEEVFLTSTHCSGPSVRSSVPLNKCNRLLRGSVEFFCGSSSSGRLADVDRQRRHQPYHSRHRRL

target: Cruzipain (Trypanosoma cruzi) (UniProt P25779); test: qHTS Assay for Promiscuous and Specific Inhibitors of Cruzain (without detergent); settings: purified cruzain, Z-FR-AMC fluorescence, no detergent; also: nearly all actives have a fitted effect of over 40% in size
Potency is read from the fitted curve at half-maximal effect.

Q: How did the Potency turn out when `Cc1c2non([O-])c-2c(C)[n+](=O)[n+]1[O-]` was run?
A: inconclusive: 3.98 µM

Q: Which Potency does the source give for `CC1CCN(C(=O)Oc2c(Cl)cc(Cl)c3cccnc23)CC1` here?
A: inconclusive: 31.6 µM

Q: Which Potency does the source give for `CCOP1(=S)c2c(C)nn(CCC#N)c2N=C(c2ccccc2F)N1C` (stereo not given) here?
A: inconclusive: 7.94 µM

Q: Which Potency does the source give for `Cc1ccc(NCCc2c([N+](=O)[O-])cc([N+](=O)[O-])cc2[N+](=O)[O-])cc1` here?
A: inconclusive: 31.6 µM

Q: Which Potency does the source give for `Cc1nn(-c2ccccc2)c2c1P(=O)(N1CCOCC1)N(C)C(c1ccccc1)=N2` (stereo not given) here?
A: inconclusive: 10 µM
